Reference: patent US6034062A, “Bone morphogenetic protein (BMP)-9 compositions and their uses” (Genetics Institute, Inc., priority 1997, dated 2000)
Read-outs that look alike come from different tables or passages of the source.

How the values were obtained:
[1] = system: W-20 cells; assay: W-20 alkaline phosphatase assay; format: cell-based, mice; settings: for Absorbance Reading 405 nmeters: 24 hour incubation
Description: Use of the W-20 bone marrow stromal cells as an indicator cell line is based upon the conversion of these cells to osteoblast-like cells after treatment with BMP-2 [R. S. Thies et al., "Bone Morphogenetic Protein alters W-20 stromal cell differentiation in vitro", Journal of Bone and Mineral Research 5(2):305 (1990); and R. S. Thies et al., "Recombinant Human Bone Morphogenetic Protein 2 Induces Osteoblastic Differentiation in W-20-17 Stromal Cells", Endocrinology, 130(3):1318-1324 (1992)]. Specifically, W-20 cells are a clonal bone marrow stromal cell line derived from adult mice by researchers in the laboratory of Dr. D. Nathan, Children's Hospital, Boston, Mass. […] Furthermore, to date we have observed conversion of W-20 stromal cells to osteoblast-like cells only upon treatment with BMPs.
W-20 cells are plated into 96 well tissue culture plates at a density of 10,000 cells per well in 200 μl of media (DME with 10% heat inactivated fetal calf serum, 2 mM glutamine and 100 U/ml+100 μg/ml streptomycin. The cells are allowed to attach overnight in a 95% air, 5% CO2 incubator at 37° C.
The 200 μl of media is removed from each well with a multichannel pipettor and replaced with an equal volume of test sample delivered in DME with 10% heat inactivated fetal calf serum, 2 mM glutamine and 1% penicillin-streptomycin. Test substances are assayed in triplicate.
The test samples and standards are allowed a 24 hour incubation period with the W-20 indicator cells. After the 24 hours, plates are removed from the 37° C. incubator and the test media are removed from the cells.
The W-20 cell layers are washed 3 times with 200 μl per well of calcium/magnesium free phosphate buffered saline and these washes are discarded.
50 μl of glass distilled water is added to each well and the assay plates are then placed on a dry ice/ethanol bath for quick freezing. Once frozen, the assay plates are removed from the dry ice/ethanol bath and thawed at 37° C. This step is repeated 2 more times for a total of 3 freeze-thaw procedures. Once complete, the membrane bound alkaline phosphatase is available for measurement.
50 μl of assay mix (50 mM glycine, 0.05% Triton X-100, 4 mM MgCl2, 5 mM p-nitrophenol phosphate, pH=10.3) is added to each assay well and the assay plates are then incubated for 30 minutes at 37° C. in a shaking waterbath at 60 oscillations per minute.
At the end of the 30 minute incubation, the reaction is stopped by adding 100 μl of 0.2 N NaOH to each well and placing the assay plates on ice.
The spectrophotometric absorbance for each well is read at a wavelength of 405 nanometers. These values are then compared to known standards to give an estimate of the alkaline phosphatase activity in each sample. For example, using known amounts of p-nitrophenol phosphate, absorbance values are generated.
Absorbance values for known amounts of BMP-2 can be determined and converted to μmoles of p-nitrophenol phosphate cleaved per unit time as shown in Table II.

[2] = system: W-20 cells; assay: Osteocalcin RIA, W-20 cells; format: cell-based, mice; settings: 96 hours
Procedure: W-20 cells are plated at 10^6 cells per well in 24 well multiwell tissue culture dishes in 2 mls of DME containing 10% heat inactivated fetal calf serum, 2 mM glutamine. The cells are allowed to attach overnight in an atmosphere of 95% air 5% CO2 at 37° C.
The next day the medium is changed to DME containing 10% fetal calf serum, 2 mM glutamine and the test substance in a total volume of 2 ml. Each test substance is administered to triplicate wells. The test substances are incubated with the W-20 cells for a total of 96 hours with replacement at 48 hours by the same test medias.
At. the end of 96 hours, 50 μl of the test media is removed from each well and assayed for osteocalcin production using a radioimmunoassay for mouse osteocalcin. The details of the assay are described in the kit manufactured by Biomedical Technologies Inc., 378 Page Street, Stoughton, Mass. 02072. Reagents for the assay are found as product numbers BT-431 (mouse osteocalcin standard), BT-432 (Goat anti-mouse Osteocalcin), BT-431R (iodinated mouse osteocalcin), BT-415 (normal goat serum) and BT-414 (donkey anti goat IgG). The RIA for osteocalcin synthesized by W-20 cells in response to BMP treatment is carried out as described in the protocol provided by the manufacturer.
The values obtained for the test samples are compared to values for known standards of mouse osteocalcin and to the amount of osteocalcin produced by W-20 cells in response to challenge with known amounts of BMP-2.

[3] = system: BMP-9 receptors expressed on HepG2 cells; assay: 125I-BMP-9 binding to HepG2 cells; settings: 125I-BMP-9 and 250-fold excess of unlabeled ligand
Procedure: BMP-9 responsiveness in parenchymal liver cells is tested by screening four liver cell lines for their ability to bind iodinated, CHO-derived BMP-9. […] Specific binding of BMP-9 to HepG2 cells is carried out by incubating HepG2 cells grown to confluence in Dulbecco's Modified Eagle's Medium (DME) containing 10% heat-inactivated fetal calf serum (FCS) on gelatinized 6 well plates with 2 ng/ml ^125 I-BMP-9 and increasing concentrations of unlabelled BMP-9 in binding buffer (136.9 mM NaCl, 5.37 mM KCl, 1.26 mM CaCl2, 0.64 mM MgSO4, 0.34 mM Na2 HPO4, 0.44 mM KH2 PO4, 0.49 mM MgCl2, 25 mM HEPES and 0.5% BSA, pH 7.4) for 20 hours at 4° C. to achieve binding equilibrium. This incubation follows a one hour preincubation at 37° C. in binding buffer alone. For crosslinking experiments, the cells were incubated with 500 μM disuccinimidyl suberate for 20 minutes at […] following binding. Cell extracts were analyzed on SDS-PAGE. […] The curvilinear nature of the Scatchard plot indicates negative cooperativity among BMP-9 receptors or that HepG2 cells express at least two populations of BMP-9 receptors with different affinities. Crosslinking analysis on HepG2 cells with ^125 I-BMP-9 yields two binding proteins of apparent molecular weights of 54 and 80 kD. […]

[4] = system: W-20 cells; settings: BMP-2 treatment of W-20 cells; cited from earlier work
[5] = system: W-20 cells; settings: BMP-2 treatment of W-20 cells; cited from earlier work; remark: listed apart in the source
[6] = system: W-20 cells; settings: BMP-2 treatment of W-20 cells; cited from earlier work; remark: listed apart in the source
[7] = BMP-2 concentration 12.50 ng/ml
[8] = BMP-2 concentration 100.0 ng/ml

## BMP-2: bone morphogenetic protein 2, standard in the W-20 assays
[1]; BMP-2 concentration 1.56 ng/ml
  Alkaline phosphatase, umoles substrate per hour: 0.026 umoles substrate per hour
  Absorbance Reading 405 nmeters: 0.696
[1]; BMP-2 concentration 3.12 ng/ml
  Alkaline phosphatase, umoles substrate per hour: 0.029 umoles substrate per hour
  Absorbance Reading 405 nmeters: 0.765
[1]; BMP-2 concentration 6.25 ng/ml
  Alkaline phosphatase, umoles substrate per hour: 0.036 umoles substrate per hour
  Absorbance Reading 405 nmeters: 0.923
[1]; [7]
  Alkaline phosphatase, umoles substrate per hour: 0.044 umoles substrate per hour
  Absorbance Reading 405 nmeters: 1.121
[1]; BMP-2 concentration 25.0 ng/ml
  Alkaline phosphatase, umoles substrate per hour: 0.058 umoles substrate per hour
  Absorbance Reading 405 nmeters: 1.457
[1]; BMP-2 concentration 50.0 ng/ml
  Alkaline phosphatase, umoles substrate per hour: 0.067 umoles substrate per hour
  Absorbance Reading 405 nmeters: 1.662
[1]; [8]
  Alkaline phosphatase, umoles substrate per hour: 0.080 umoles substrate per hour
  Absorbance Reading 405 nmeters: 1.977
[2]; BMP-2 Concentration 2 ng/ml
  Osteocalcin synthesis: 0.9 ng/well
[2]; BMP-2 Concentration 4 ng/ml
  Osteocalcin synthesis: 0.8 ng/well
[2]; BMP-2 Concentration 8 ng/ml
  Osteocalcin synthesis: 2.2 ng/well
[2]; BMP-2 Concentration 16 ng/ml
  Osteocalcin synthesis: 2.7 ng/well
[2]; BMP-2 Concentration 31 ng/ml
  Osteocalcin synthesis: 3.2 ng/well
[2]; BMP-2 Concentration 62 ng/ml
  Osteocalcin synthesis: 5.1 ng/well
[2]; BMP-2 Concentration 125 ng/ml
  Osteocalcin synthesis: 6.5 ng/well
[2]; BMP-2 Concentration 250 ng/ml
  Osteocalcin synthesis: 8.2 ng/well
[2]; BMP-2 Concentration 500 ng/ml
  Osteocalcin synthesis: 9.4 ng/well
[2]; BMP-2 Concentration 1000 ng/ml
  Osteocalcin synthesis: 10.0 ng/well
[3]
  crossreactivity of BMP-9 receptors with unlabeled ligand: limited crossreactivity
[4]
  alkaline phosphatase production: increased alkaline phosphatase production
[5]
  Osteocalcin synthesis: induction of osteocalcin synthesis
[6]
  PTH stimulated cAMP: induction of PTH stimulated cAMP

B1: BMP-2/6: printed as BMPs ... 2/6; unlabeled competing ligand, presumably BMP-2/BMP-6 heterodimer (protein)
chain 1: QAKHKQRKRLKSSCKRHPLYVDFSDVGWNDWIVAPPGYHAFYCHGECPFPLADHLNSTNHAIVQTLVNSVNSKIPKACCVPTELSAISMLYLDENEKVVLKNYQDMVVEGCGCR
chain 2: SASSRRRQQSRNRSTQSQDVARVSSASDYNSSELKTACRKHELYVSFQDLGWQDWIIAPKGYAANYCDGECSFPLNAHMNATNHAIVQTLVHLMNPEYVPKPCCAPTKLNAISVLYFDDNSNVILKKYRNMVVRACGCH
[3]
  crossreactivity of BMP-9 receptors with unlabeled ligand: no crossreactivity
